Amino acid sequences for entries named in this document (tags omitted).
UniProt Q8C7D2, whole entry, looked up, stated change not applied: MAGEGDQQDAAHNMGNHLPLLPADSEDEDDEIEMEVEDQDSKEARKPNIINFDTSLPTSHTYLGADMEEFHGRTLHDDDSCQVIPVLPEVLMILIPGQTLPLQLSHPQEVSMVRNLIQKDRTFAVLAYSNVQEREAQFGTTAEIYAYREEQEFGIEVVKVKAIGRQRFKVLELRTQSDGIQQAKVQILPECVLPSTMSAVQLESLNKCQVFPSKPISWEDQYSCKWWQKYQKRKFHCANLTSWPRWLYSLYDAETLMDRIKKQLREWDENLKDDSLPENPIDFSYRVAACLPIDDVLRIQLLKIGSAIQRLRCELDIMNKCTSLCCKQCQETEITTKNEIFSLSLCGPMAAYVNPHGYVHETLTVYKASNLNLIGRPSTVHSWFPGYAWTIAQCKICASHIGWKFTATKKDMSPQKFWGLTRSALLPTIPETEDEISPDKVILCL

In PMC12274739, “Differential substrate degradation by super-degron: EGFP in wild-type mouse cells, PD-1 requires CRBN humanization” (iScience, 2025):

Target: EGFP-ZFP91 (UniProt P42212+Q8C7D2, F64L/H231L/INS1V/S65T)
Assay: Degradation of EGFP-ZFP91 in mESCs by thalidomide analogs (Figure 5)
Type: cell-based, mouse
Details: read-out: DC50, EGFP-ZFP91; CrbnI391V/I391V mESCs, stable, Figure 5E

Compound Nc1cccc2c1C(=O)N(C1CCC(=O)NC1=O)C2=O (stereo not shown) [POM, pomalidomide] has a DC50 of 8.88 nM.
